Legend:
[1] = target: T1, N-terminal phenylalanine peptide FAAAYP; assay: peptide-on-chip recognition assay, 500 nM binder
T1 construct: Immobilized on the chip
T1 peptide: FAAAYP

[2] = target: T2, WLVK (GLP-1 fragment EFIAWLVK after cleavage up to W); assay: real-time dynamic sequencing, 100 nM dye-labelled PS610 with hTET and pfuTET
T2 construct: Degradation intermediate of the immobilized fragment of Glucagon-like peptide 1; the residue range is worked out from 'W recognition'
T2 peptide: WLVK

[3] = target: T3, FIAWLVK (GLP-1 fragment EFIAWLVK after removal of the N-terminal E); assay: as above
T3 construct: Degradation intermediate of the immobilized fragment of Glucagon-like peptide 1; the residue range is worked out from 'F recognition'
T3 peptide: FIAWLVK

B1: PS610 (Bis-atClpS2-V1, Linker 2) (designed binder)
chain: MSDSPVDLKPKPKVKPKLERPKLYKVMLLNDDYTPMSFVTVVLKAVFRMSEDTGRRVMMTAHRFGSAVVVVCERDIAETKAKEATDLGKEAGFPLMFTTEPEEGSAGSAAGSGEFMSDSPVDLKPKPKVKPKLERPKLYKVMLLNDDYTPMSFVTVVLKAVFRMSEDTGRRVMMTAHRFGSAVVVVCERDIAETKAKEATDLGKEAGFPLMFTTEPEEGHHHHHHHHHHGGGSGGGSGGGSGLNDFFEAQKIEWHEGGGSGGGSGGGSGLNDFFEAQKIEWHE
[1]
  fold faster rate of pulsing against monovalent atClpS2-V1: 2.3 fold
  fold shorter median interpulse duration against monovalent atClpS2-V1: ~5.8 fold
[2]
  binding result: binds
[3]
  binding result: binds

Source: US20210364527A1, “Methods and compositions for protein sequencing” (QUANTUM SI, published 2021)
